Laboratory results reported in patent US20150322033A1, “ANTIBACTERIAL AGENT” (priority 2012, published 2015).

How the values were obtained:
S. aureus Mu50 = settings: Example 1, Tables 1 to 10
[1] = system: S. aureus FDA209P (ATCC 6538P); settings: Example 1, Tables 1 to 10

COc1cc(-c2[o+]c3cc(O)cc(O)c3cc2O)ccc1O [compound 129]
MIC (mg/L) Mu50 (S. aureus Mu50): 128 mg/L | MIC (mg/L) FDA209P [1]: 128 mg/L
